In US20230338060A1, “Device and Method for Treating Osteonecrosis” (Texas Scottish Rite Hospital for Children, priority 2017, published 2023):

B1: BMP2-R: BMP2 released from the GHT hydrogel (protein, UniProt P12643 283-396, looked up)
Bone morphogenetic protein 2: QAKHKQRKRLKSSCKRHPLYVDFSDVGWNDWIVAPPGYHAFYCHGECPFPLADHLNSTNHAIVQTLVNSVNSKIPKACCVPTELSAISMLYLDENEKVVLKNYQDMVVEGCGCR
modifications: released from GHT hydrogel

What was measured:
[1] = 1 mg BMP2 per hip, saline as carrier; cited from earlier work
[2] = 4 mg BMP2 per hip; cited from earlier work
[3] = test system: pig bone marrow mesenchymal cells; assay: Osteogenic bioactivity of released BMP2 (qPCR, Alizarin red); format: cell-based
Method: (FIG. 2A) The graph showing the cumulative release profile of BMP2 from GHT hydrogel (0.75 mg BMP2 per ml of hydrogel); (FIG. 2B) The bar graph showing the total amount of detected BMP2 from the GHT hydrogel; (FIG. 2C) The bar graph showing the relative gene expression by pig bone marrow mesenchymal cells (pBMSCs) cultured for 5 days in growth medium (GM), osteogenic medium (OM), OM supplemented with BMP2 (40 ng/ml), or OM supplemented with released BMP2 (40 ng/ml) from the hydrogel (BMP2-R); (FIG. 2D) Alizarin Red staining of the pBMSCs that were cultured for 11 days in GM, OM, OM+BMP2 (40 ng/ml), and OM+BMP2-R (40 ng/ml). * represents p<0.05, when comparing with GM group; # represents p<0.05, when comparing with OM group.
In order to test the bioactivity of the released BMP2 (BMP2-R), osteogenic assays were performed using pig bone marrow mesenchymal cells (pBMMC). The cells were cultured for five days.

Row | Molecule | incidence of HO [1] | occurrence of HO [2] | osteogenesis of pBMMC, BMP2-R vs BMP2 groups ([3]; 40 ng/ml) | gene expression for Col 1, ALP and OSX ([3]; 40 ng/ml in OM, 5 days, compared to OM and GM (p<0.0001)) | minerals, Alizarin red staining ([3]; 40 ng/ml in OM, eleven days, vs OM group)
1 | BMP2: recombinant human bone morphogenetic protein 2, from INFUSE Bone Graft (Medtronic) | 4/6 | 8/66 | – | – | –
2 | B1 | – | – | No significant differences | upregulation | increased minerals
